Literature values in US20250170103A1, “4-(6-OXO-2-(TRIFLUOROMETHYL)-3,6-DIHYDROCHROMENO[7,8-D]IMIDAZOL-8-YL)BENZONITRILE FOR USE IN THE TREATMENT OF DISEASES AND CONDITIONS ASSOCIATED WITH MOVEMENT DISORDERS” (OnTrack Therapeutics Limited, priority 2022, published 2025).

Tested on: ALS patients
Conditions: several months; cited from earlier work

Nc1nc2ccc(OC(F)(F)F)cc2s1 [Riluzole, reference compound]
prolongation of survival: ~7%
